Assay: Solubility of sitagliptin salts in water at 25° C.

Sitagliptin Hydrogensulfate [Hydrogen sulfate]
solubility in water (in words): very good
Solubility in water (25° C.): >300 mg/mL
